The record followed here is patent publication US10065970B2 (Genentech, Inc., priority 2015, dated 2018).

By UniProt entry, the sequences of proteins in these tests, tags left out.
UniProt P42336, whole entry: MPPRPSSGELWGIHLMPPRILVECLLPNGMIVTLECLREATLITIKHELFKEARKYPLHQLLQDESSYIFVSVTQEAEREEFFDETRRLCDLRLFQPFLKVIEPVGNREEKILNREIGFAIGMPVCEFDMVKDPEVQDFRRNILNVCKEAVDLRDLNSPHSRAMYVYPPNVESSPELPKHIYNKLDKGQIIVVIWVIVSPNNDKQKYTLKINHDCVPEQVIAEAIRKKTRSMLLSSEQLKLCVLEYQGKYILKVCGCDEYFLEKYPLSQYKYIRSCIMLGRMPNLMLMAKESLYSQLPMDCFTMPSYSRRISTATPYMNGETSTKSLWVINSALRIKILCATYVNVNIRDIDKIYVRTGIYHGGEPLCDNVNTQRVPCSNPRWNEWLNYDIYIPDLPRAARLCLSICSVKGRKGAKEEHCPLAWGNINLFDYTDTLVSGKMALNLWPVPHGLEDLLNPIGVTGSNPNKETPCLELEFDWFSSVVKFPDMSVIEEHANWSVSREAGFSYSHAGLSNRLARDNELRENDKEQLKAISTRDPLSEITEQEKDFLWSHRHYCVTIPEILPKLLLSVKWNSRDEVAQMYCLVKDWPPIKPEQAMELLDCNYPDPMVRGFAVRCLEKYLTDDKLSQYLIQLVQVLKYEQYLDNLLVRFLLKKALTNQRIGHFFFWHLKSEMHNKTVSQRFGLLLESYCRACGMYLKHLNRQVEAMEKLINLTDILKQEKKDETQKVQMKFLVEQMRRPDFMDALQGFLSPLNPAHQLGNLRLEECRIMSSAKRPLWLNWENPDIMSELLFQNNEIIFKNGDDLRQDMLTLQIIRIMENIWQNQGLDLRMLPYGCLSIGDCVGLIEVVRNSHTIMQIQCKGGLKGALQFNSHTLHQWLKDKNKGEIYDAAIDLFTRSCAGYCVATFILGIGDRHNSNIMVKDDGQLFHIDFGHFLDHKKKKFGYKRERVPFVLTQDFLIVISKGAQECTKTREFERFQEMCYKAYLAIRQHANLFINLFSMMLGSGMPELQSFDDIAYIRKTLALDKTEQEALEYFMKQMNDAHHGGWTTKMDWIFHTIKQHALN

The assay addresses PI3Kα (alpha) (Homo sapiens (Human), UniProt P42336). The assay is described as follows: p110α (alpha) PI3K Binding Assay (ADP-Glo lipid kinase reaction). The assay is classed as biochemical. The following applies: PI3K alpha 0.2 nM, ATP 40 μM, PIP2:3PS 50 μM, 120 min, room temperature; Ki by Morrison Equation; read-out: PI3Kα-(alpha) ATP (Ki) micromolar. How it is done: The ability of a compound of the invention to act as an inhibitor of PI3Kα was determined using the methods of Example 901.
PI3K Binding assays are intended for determining the biochemical potency of small molecule PI3K inhibitors. The PI3K lipid kinase reaction is performed in the presence of PIP2:3PS lipid substrate (Promega #V1792) and ATP. Following the termination if the kinase reaction, turnover of ATP to ADP by the phosphorylation of the lipid substrate is detected using the Promega ADP-Glo™ (Promega #V1792) assay. Reactions are carried out using the following conditions:
After 120 minutes of reaction time, the kinase reaction is terminated. Any ATP remaining after the reaction is depleted, leaving only ADP. Then the Kinase Detection Reagent is added to convert ADP to ATP, which is used in a coupled luciferin/luciferase reaction. The luminescent output is measured and is correlated with kinase activity.
All reactions are carried out at room temperature. A 3 μl mixture (1:1) of enzyme/lipid substrate solution is added to a 384 well white assay plate (Perkin Elmer #6007299) containing 50 nl of test compound or DMSO only for untreated controls. The reaction is started by the addition of 2 μl ATP/MgCl2. The kinase reaction buffer contains 50 mM HEPES, 50 mM NaCl, 3 mM MgCl2, 0.01% BSA, 1% DMSO, and enzyme and substrate concentrations as indicated in the above table. The reaction is stopped by the addition of 10 μL ADP-Glo reagent. Plates are read in a Perkin Elmer Envision system using luminescence mode. 10 point dose response curves are generated for each test compound. Ki values for each compound are determined using the Morrison Equation.
On the technique in general: In ADP-Glo the light output rises with the ADP produced.
As usually defined, the Ki is the equilibrium dissociation constant of an inhibitor or competing ligand from its target. In the case of `NC(=O)[C@@H]1CCCN1c1cc2c3c(c1)nc(-c1ccc4oc(N)nc4c1)n3CCCO2` [Example 104, (S)-1-(1-(2-Aminobenzo[d]oxazol-5-yl)-8,9-dihydro-7H-6-oxa-2,9a-diazabenzo[cd]azulen-4-yl)pyrrolidine-2-carboxamide], the Ki is 0.071 nM.
With `COc1nc(C)cc(-c2nc3cc(N[C@H](C(N)=O)C4CC4)cc4c3n2CCCO4)n1` [Example 121, (S)-2-Cyclopropyl-2-((1-(2-methoxy-6-methylpyrimidin-4-yl)-8,9-dihydro-7H-6-oxa-2,9a-diazabenzo[cd]azulen-4-yl)amino)acetamide] the figure was 30.6 nM; with `NC(=O)c1cccc(-c2nc3cc(N[C@H](C(N)=O)C4CC4)cc4c3n2CCCO4)c1` [Example 146, (S)-3-(4-((2-Amino-1-cyclopropyl-2-oxoethyl)amino)-8,9-dihydro-7H-6-oxa-2,9a-diazabenzo[cd]azulen-1-yl)benzamide], 52.9 nM; with `C[C@@H](C(N)=O)N(C)c1cc2c3c(c1)nc(-c1ccc4oc(N)nc4c1F)n3CCCCO2` [Example 270, (S)-2-((1-(2-Amino-4-fluorobenzo[d]oxazol-5-yl)-7,8,9,10-tetrahydro-6-oxa-2,10a-diazacycloocta[cd]inden-4-yl)(methyl)amino)propanamide], 0.03 nM.
On to `NC(=O)[C@@H](Nc1cc2c3c(c1)nc(-c1ccc4ncc(O)cc4c1)n3CCCO2)C1CC1` [Example 189, (S)-2-Cyclopropyl-2-((1-(3-hydroxyquinolin-6-yl)-8,9-dihydro-7H-6-oxa-2,9a-diazabenzo[cd]azulen-4-yl)amino)acetamide], for which the Ki amounted to 6.12 nM.
Turning to `NC(=O)[C@@H]1CCCN1c1cc2c3c(c1)nc(-c1ccc4[nH]nnc4c1)n3CCCO2` [Example 200, (5)-1-(1-(1H-Benzo[d][1,2,3]triazol-5-yl)-8,9-dihydro-7H-6-oxa-2,9a-diazabenzo[cd]azulen-4-yl)pyrrolidine-2-carboxamide], the Ki is 4.59 nM.
Under `CO[C@@H]1CCN(c2cc3c4c(c2)nc(-c2ccc5nc(N)sc5c2)n4CCCCO3)[C@@H]1C(N)=O` [Example 300, (2S,3R)-1-(1-(2-Aminobenzo[d]thiazol-6-yl)-7,8,9,10-tetrahydro-6-oxa-2,10a-diazacycloocta[cd]inden-4-yl)-3-methoxypyrrolidine-2-carboxamide] stands 0.045 nM; under `NC(=O)[C@@H]1CCCN1c1cc2c3c(c1)nc(-c1ccc4nc(N)sc4c1)n3CCCCO2` [Example 239, (S)-1-(1-(2-Aminobenzo[d]thiazol-6-yl)-7,8,9,10-tetrahydro-6-oxa-2,10a-diazacycloocta[cd]inden-4-yl)pyrrolidine-2-carboxamide], 0.035 nM.
